Assay: Maraviroc release rate by Rapid Equilibrium Dialysis (RED)
Format: physicochemical
Conditions: 8 kDa MWCO, 6 h, 37° C., pH 7.4, oil-blended SDNs with Vitamin E
Description: The rate of maraviroc release from the three maraviroc oil-blended SDN formulations found to most reliably and reproducibly produce nanodispersions in Example 6 was assessed across a size selective (8 kDa MWCO) membrane using RED plates and inserts. Control experiments were also run testing the rate of maraviroc release from aqueous maraviroc and a conventional maraviroc SDN
(ACS_14-70 wt % maraviroc; 20 wt % PVA; and 10 wt % AOT as described in 2). Transport buffer (TB—consisting of Hanks balanced salt solution, 25 mM HEPES and 0.1% Bovine Serum Albumin (BSA), pH 7.4) was spiked with either DMSO dissolved maraviroc (<5% DMSO), a conventional maraviroc SDN or a maraviroc oil-blended SDN. A total of 1 mg maraviroc was added to the donor compartments for each preparation in 0.1 ml dH2O with an additional 0.5 ml of TB added to the donor chambers. One-millilitre of TB was subsequently added to the corresponding acceptor chambers. The RED plates were sealed using Parafilm to avoid evaporation and placed on an orbital shaker (Heidolph Rotomax 120; 100 rpm, 6 h, 37° C.). […] Collected samples were analysed via HPLC.
Rapid equilibrium dialysis was performed as per Example 7. The compositions correspond to those found to form successful nanodispersions in Examples 8, 9 and 10. The data is also plotted as a bar graph in FIG. 14.

## maraviroc [Aqueous maraviroc]
  Rate of maraviroc release: 0.2491 h

— US20210361639A1, “SOLID COMPOSITIONS OF ACTIVES, PROCESSES FOR PREPARING SAME AND USES OF SUCH SOLID COMPOSITIONS” (The University of Liverpool, priority 2018, published 2021)
